Literature values, collected in US20150132388A1, “COMPLEXES OF FULVESTRANT AND ITS DERIVATIVES, PROCESS FOR THE PREPARATION THEREOF AND PHARMACEUTICAL COMPOSITIONS CONTAINING THEM” (Druggability Technologies Holdings Limited, priority 2013, published 2015).

Protein sequences, listed by entry. Tags and fused reporters are not part of them.
UniProt P08684, whole entry: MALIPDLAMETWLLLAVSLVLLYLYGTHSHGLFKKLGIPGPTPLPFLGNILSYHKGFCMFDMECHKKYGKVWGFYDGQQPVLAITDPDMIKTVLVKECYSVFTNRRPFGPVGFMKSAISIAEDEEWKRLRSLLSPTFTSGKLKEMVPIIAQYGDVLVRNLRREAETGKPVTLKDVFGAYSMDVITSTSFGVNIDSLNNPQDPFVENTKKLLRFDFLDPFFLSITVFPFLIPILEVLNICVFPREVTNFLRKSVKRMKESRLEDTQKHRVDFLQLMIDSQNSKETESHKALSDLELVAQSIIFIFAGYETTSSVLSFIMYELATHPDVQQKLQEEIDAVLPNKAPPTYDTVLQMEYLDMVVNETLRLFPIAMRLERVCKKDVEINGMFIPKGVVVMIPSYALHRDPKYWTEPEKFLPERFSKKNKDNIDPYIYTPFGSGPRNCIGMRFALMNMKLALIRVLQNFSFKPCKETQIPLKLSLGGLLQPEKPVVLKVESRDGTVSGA

Target: cytochrome P-450 3A4 (CYP 3A4) (Homo sapiens, UniProt P08684)
Details: human liver preparations and recombinant human enzymes; cited from earlier work

Substance: 7-alpha-[9-(4,4,5,5,5-penta fluoropentylsulphinyl)nonyl]estra-1,3,5-(10)-triene-3,17 beta-diol [Fulvestrant]
- P-450 isoenzyme involved in the oxidation: cytochrome P-450 3A4 (CYP 3A4) is the only P-450 isoenzyme involved
